Experimental data from PubChem BioAssay (NCI).
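Step 1: Grow cells in 96-well plates. Step 2: Expose to compound for 48 hours at 5 concentrations. Step 3: Interpolate endpoints linearly; if unreached, use highest concentration. GI50 marks 50% less growth. Definition used: TGI = concentration required for complete inhibition of growth.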

Experiments:
Assay in all cases: growth of human tumour cells (NCI), 48 h
[1] = system: 786-0 renal
[2] = system: A498 renal
[3] = system: A549 NSCLC
[4] = system: ACHN renal
[5] = system: BT-549 breast
[6] = system: CAKI-1 renal
[7] = system: CCRF-CEM leukemia
[8] = system: COLO 205 colon
[9] = system: DU-145 prostate
[10] = system: EKVX NSCLC
[11] = system: HCC-2998 colon
[12] = system: HCT-116 colon
[13] = system: HCT-15 colon
[14] = system: HOP-62 NSCLC
[15] = system: HOP-92 NSCLC
[16] = system: HT29 colon
[17] = system: IGROV1 ovarian
[18] = system: K-562 leukemia
[19] = system: KM12 colon
[20] = system: LOX IMVI melanoma
[21] = system: M14 melanoma
[22] = system: MCF7 breast
[23] = system: MDA-MB-231 breast
[24] = system: MDA-MB-435
[25] = system: MDA-N
[26] = system: MOLT-4 leukemia
[27] = system: NCI-H226 lung
[28] = system: NCI-H23 lung
[29] = system: NCI-H322M lung
[30] = system: NCI-H460 lung
[31] = system: NCI/ADR-RES ovarian
[32] = system: OVCAR-3 ovarian
[33] = system: OVCAR-4 ovarian
[34] = system: OVCAR-5 ovarian
[35] = system: OVCAR-8 ovarian
[36] = system: PC-3 prostate
[37] = system: RPMI-8226 leukemia
[38] = system: RXF 393 renal
[39] = system: SF-295 CNS
[40] = system: SF-539 CNS
[41] = system: SK-MEL-2 melanoma
[42] = system: SK-MEL-28 melanoma
[43] = system: SK-MEL-5 melanoma
[44] = system: SN12C renal
[45] = system: SNB-19 CNS
[46] = system: SNB-75 CNS
[47] = system: SR leukemia
[48] = system: SW-620 colon
[49] = system: T-47D breast
[50] = system: U251 CNS
[51] = system: UACC-257 melanoma
[52] = system: UACC-62 melanoma
[53] = system: UO-31 renal
[54] = system: HL-60(TB) leukemia
[55] = system: HS 578T breast
[56] = system: MALME-3M melanoma
[57] = system: NCI-H522 lung
[58] = system: SF-268 CNS
[59] = system: SK-OV-3 ovarian
[60] = system: TK-10 renal

Compound: O=P1(Oc2ccccc2)Cc2cnccc2CN1 (stereo unspecified)
- GI50 [1]: > 100 µM
- TGI [1]: > 100 µM
- GI50 [2]: > 100 µM
- TGI [2]: > 100 µM
- GI50 [3]: > 100 µM
- TGI [3]: > 100 µM
- GI50 [4]: > 100 µM
- TGI [4]: > 100 µM
- GI50 [5]: > 100 µM
- TGI [5]: > 100 µM
- GI50 [6]: > 100 µM
- TGI [6]: > 100 µM
- GI50 [7]: > 100 µM
- TGI [7]: > 100 µM
- GI50 [8]: > 100 µM
- TGI [8]: > 100 µM
- GI50 [9]: > 100 µM
- TGI [9]: > 100 µM
- GI50 [10]: > 100 µM
- TGI [10]: > 100 µM
- GI50 [11]: > 100 µM
- TGI [11]: > 100 µM
- GI50 [12]: > 100 µM
- TGI [12]: > 100 µM
- GI50 [13]: > 100 µM
- TGI [13]: > 100 µM
- GI50 [14]: > 100 µM
- TGI [14]: > 100 µM
- GI50 [15]: > 100 µM
- TGI [15]: > 100 µM
- GI50 [16]: > 100 µM
- TGI [16]: > 100 µM
- GI50 [17]: > 100 µM
- TGI [17]: > 100 µM
- GI50 [18]: > 100 µM
- TGI [18]: > 100 µM
- GI50 [19]: > 100 µM
- TGI [19]: > 100 µM
- GI50 [20]: > 100 µM
- TGI [20]: > 100 µM
- GI50 [21]: > 100 µM
- TGI [21]: > 100 µM
- GI50 [22]: > 100 µM
- TGI [22]: > 100 µM
- GI50 [23]: > 100 µM
- TGI [23]: > 100 µM
- GI50 [24]: > 100 µM
- TGI [24]: > 100 µM
- GI50 [25]: > 100 µM
- TGI [25]: > 100 µM
- GI50 [26]: > 100 µM
- TGI [26]: > 100 µM
- GI50 [27]: > 100 µM
- TGI [27]: > 100 µM
- GI50 [28]: > 100 µM
- TGI [28]: > 100 µM
- GI50 [29]: > 100 µM
- TGI [29]: > 100 µM
- GI50 [30]: > 100 µM
- TGI [30]: > 100 µM
- GI50 [31]: > 100 µM
- TGI [31]: > 100 µM
- GI50 [32]: > 100 µM
- TGI [32]: > 100 µM
- GI50 [33]: > 100 µM
- TGI [33]: > 100 µM
- GI50 [34]: > 100 µM
- TGI [34]: > 100 µM
- GI50 [35]: > 100 µM
- TGI [35]: > 100 µM
- GI50 [36]: > 100 µM
- TGI [36]: > 100 µM
- GI50 [37]: > 100 µM
- TGI [37]: > 100 µM
- GI50 [38]: > 100 µM
- TGI [38]: > 100 µM
- GI50 [39]: > 100 µM
- TGI [39]: > 100 µM
- GI50 [40]: > 100 µM
- TGI [40]: > 100 µM
- GI50 [41]: > 100 µM
- TGI [41]: > 100 µM
- GI50 [42]: > 100 µM
- TGI [42]: > 100 µM
- GI50 [43]: > 100 µM
- TGI [43]: > 100 µM
- GI50 [44]: > 100 µM
- TGI [44]: > 100 µM
- GI50 [45]: > 100 µM
- TGI [45]: > 100 µM
- GI50 [46]: > 100 µM
- TGI [46]: > 100 µM
- GI50 [47]: > 100 µM
- TGI [47]: > 100 µM
- GI50 [48]: > 100 µM
- TGI [48]: > 100 µM
- GI50 [49]: > 100 µM
- TGI [49]: > 100 µM
- GI50 [50]: > 100 µM
- TGI [50]: > 100 µM
- GI50 [51]: > 100 µM
- TGI [51]: > 100 µM
- GI50 [52]: > 100 µM
- TGI [52]: > 100 µM
- GI50 [53]: > 100 µM
- TGI [53]: > 100 µM

Compound: CN(C(=O)Cc1ccc(Br)c(Br)c1N)[C@H]1CCCC[C@@H]1N1CCCC1
- TGI [1]: 38.7 µM
- TGI [2]: 30.5 µM
- TGI [3]: 51 µM
- TGI [4]: 42.1 µM
- TGI [5]: 32 µM
- TGI [6]: 26.9 µM
- TGI [7]: 25.5 µM
- TGI [8]: 26.7 µM
- TGI [9]: 37 µM
- TGI [10]: 53.1 µM
- TGI [11]: 29.5 µM
- TGI [12]: 37.1 µM
- TGI [13]: 73.9 µM
- TGI [54]: 34.6 µM
- TGI [14]: 28.4 µM
- TGI [15]: 32.5 µM
- TGI [55]: 64.3 µM
- TGI [16]: 49.7 µM
- TGI [17]: 29.7 µM
- TGI [18]: 33.9 µM
- TGI [19]: 26.3 µM
- TGI [20]: 28.6 µM
- TGI [21]: 28.9 µM
- TGI [56]: 33.7 µM
- TGI [22]: 30.8 µM
- TGI [23]: 29.5 µM
- TGI [24]: 26.1 µM
- TGI [25]: 40.8 µM
- TGI [26]: 30.5 µM
- TGI [27]: 40.8 µM
- TGI [28]: 36.9 µM
- TGI [29]: 71.1 µM
- TGI [30]: 30.9 µM
- TGI [57]: 31.1 µM
- TGI [31]: 37.5 µM
- TGI [32]: 46.3 µM
- TGI [33]: 46.5 µM
- TGI [34]: 39.5 µM
- TGI [35]: 35.8 µM
- TGI [36]: 42.6 µM
- TGI [37]: 32.3 µM
- TGI [38]: 29.5 µM
- TGI [58]: > 100 µM
- TGI [39]: 35 µM
- TGI [40]: 34.9 µM
- TGI [41]: 37 µM
- TGI [42]: 28.9 µM
- TGI [43]: 30.8 µM
- TGI [59]: 42.6 µM
- TGI [44]: > 100 µM
- TGI [45]: 55.8 µM
- TGI [46]: 23.1 µM
- TGI [47]: 33 µM
- TGI [48]: 40.2 µM
- TGI [49]: 34.3 µM
- TGI [60]: 34.8 µM
- TGI [50]: 37.1 µM
- TGI [51]: 36 µM
- TGI [52]: 31.8 µM
- TGI [53]: 30.7 µM
